Reference: patent publication US7851599B2 (Philogen S.p.A., priority 2006, dated 2010)

Columns and labels:
[1] = tested on: human pancreatic cancer cell line DanG; test: Orthotopic DanG pancreatic cancer xenograft, tumor volume; format: in vivo, nude mice; settings: for tumor load compared to control mice: separate experiment, 4.29 MIU/kg BW L19IL2 or equimolar scFv L19 for 10 days; for tumor volume, % of that observed in control mice: sacrifice day 21
[2] = tested on: human pancreatic cancer cell line MiaPaca; test: Orthotopic MiaPaca pancreatic cancer xenograft, tumor volume; format: in vivo, nude mice
serum CA 19-9 = test: Serum CA 19-9 levels in mice bearing orthotopic DanG tumors; format: in vivo, nude mice
serum lipase = test: Serum lipase as surrogate marker of pancreatitis; format: in vivo, nude mice; settings: DanG-bearing mice; end of treatment
[3] = tested on: non-transformed pancreatic tissue; test: Histological analysis of tumors and residual non-transformed pancreatic tissue for pancreatitis; format: in vivo, nude mice; settings: DanG-bearing mice treated with L19IL2 (data not shown)
Experimental: (§1) Surgically resected human and murine tissue samples were snap-frozen in liquid nitrogen and after fixation in PFA 4%, pH 7 for 20 minutes, 4 μm cryostat sections of the frozen tissue were analyzed immunohistochemically using the avidin-biotin-technique as described previously. Slides were incubated for 1 hour with the following primary antibodies: biotinylated L19IL2 (30 μg/ml), monoclonal mouse anti-human CD31 at a 1:100 dilution, rat anti-mouse CD11b at a 1:50 dilution, biotinylated mouse anti-mouse CD161b/c/NK1.1 at a 1:50 dilution, biotinylated mouse anti-human pancytokeratin at a 1:50 dilution. Sections stained with PBS instead of the primary antibody were used as a negative control. Proliferating cells were detected with a monoclonal mouse anti human Ki67 Ab applying the Animal Research Kit. […] Quantitative immunohistochemical analysis for the area of vital (non-necrotic) tumor tissue was carried out by computer aided imaging analysis using Axiovision 4.2 software (Zeiss, Jena, Germany). For quantification of proliferating, apoptotic and inflammatory cells, 20 randomly selected measurement areas (680×510 μm, magnification×20) of each tumor specimen were analyzed and for evaluation of ED-B FN expression, 10 areas (1390/×/1000 μm, magnification×10) were scanned. […] For quantitative analysis of necrotic tumor area H&E sections were scanned at low power (×2.5). […]

[4] = tested on: MiaPaca cells stably transfected with an Angiopoetin 2 DNA construct (MiaPaca-A2); test: Metastatic orthotopic MiaPaca-A2 model, primary tumor and lymph node metastases; format: in vivo, nude mice
Experimental: Orthotopic transplantation was carried out as described.
Surgically resected human and murine tissue samples were snap-frozen in liquid nitrogen and after fixation in PFA 4%, pH 7 for 20 minutes, 4 μm cryostat sections of the frozen tissue were analyzed immunohistochemically using the avidin-biotin-technique as described previously. Slides were incubated for 1 hour with the following primary antibodies: biotinylated L19IL2 (30 μg/ml), monoclonal mouse anti-human CD31 at a 1:100 dilution, rat anti-mouse CD11b at a 1:50 dilution, biotinylated mouse anti-mouse CD161b/c/NK1.1 at a 1:50 dilution, biotinylated mouse anti-human pancytokeratin at a 1:50 dilution. Sections stained with PBS instead of the primary antibody were used as a negative control. Proliferating cells were detected with a monoclonal mouse anti human Ki67 Ab applying the Animal Research Kit. Apoptotic cells were proven by Terminal deoxynucleotidyl transferase mediated dUTP nick end labeling (TUNEL) assay using TumorTACS in situ Apoptosis Detection Kit. Both procedures were carried out following the manufacturer's instructions except that 3-amino-9-ethylcarbazole (AEC) was used as the substrate-chromogen. Negative controls were included by omitting the primary antibody (Animal Research Kit) or the terminal deoxynucleotidyl transferase (TUNEL). Quantitative immunohistochemical analysis for the area of vital (non-necrotic) tumor tissue was carried out by computer aided imaging analysis using Axiovision 4.2 software (Zeiss, Jena, Germany). For quantification of proliferating, apoptotic and inflammatory cells, 20 randomly selected measurement areas (680×510 μm, magnification×20) of each tumor specimen were analyzed and for evaluation of ED-B FN expression, 10 areas (1390/×/1000 μm, magnification×10) were scanned. […] For quantitative analysis of necrotic tumor area H&E sections were scanned at low power (×2.5). Total and necrotic tumor area was marked on the screen and areas were calculated by the image analysis system, and the ratio tumor necrosis area/total tumor area was given in percentages.
Genomic DNA of mouse lymph nodes was extracted using the QIAamp DNA Mini Kit according to the manufacturer's recommended protocol. The presence of human specific DNA was proven by polymerase chain reaction (PCR) amplifying an 850 bp fragment of the α-satellite region of the human chromosome 17 using the forward primer 5′-[…]-3′ and the reverse primer 5′-[…]-3′ according to the protocol reported by Becker et al. (Becker M, Nitsche A, Neumann C, Aumann J, Junghahn I, fichtner I, Sensitive PCR method for the detection and real time quantification of human cells in xenotransplantation systems. Br J Cancer 2002;87:1328-1335). […]

[5] = tested on: orthotopic DanG pancreatic cancer; test: Long-term effects after L19IL2 therapy in the orthotopic DanG model
orthotopic DanG tumors [6] = test: NK cell depletion (anti ASGM-1) in the orthotopic DanG model, tumor volume; format: in vivo, nude mice; settings: 4.29 MIU/kg BW days 7-11, 14-18
Experimental: NK cell depletion was performed as previously described. (Peron J M, Couderc B, Rochaix P, Douin-Echinard V, Asnacious A, Souque A, Voigt J J, Bus ail L, Vine J P, Favre G, Treatment of murine hepatocellular carcinoma using genetically modified cells to express interleukin-12. J Gastroenterology Hepatic 2004; 19:388-396.) Briefly, mice were injected i.p. with 50/μl anti asialo-GM-1 (ASGM1) Ab 3 days before tumor cell injection and every 4 days for a total of 6 injections. Quality of NK cell depletion was monitored by flow cytometry and cytotoxicity assay.
To further identify the immune effector cells mediating L19IL2 induced tumor growth inhibition, tumor specimens were immunohistologically assessed for CD11b+ cells, which predominantly include macrophages and for NK cells. […] To further substantiate the suspected role of NK cells, we tested whether NK cell depletion via an anti ASGM-1 antibody interfered with the therapeutic efficacy of L19-IL-2. For this purpose, mice orthotopically engrafted with DanG cells, were randomly assigned to the following treatment groups: NK competent+saline treatment, NK deficient+saline treatment, NK deficient+L19IL2 treatment (4.29 MIU/kg BW L19 on days 7-11, 14-18) and NK competent+L19IL2 treatment (4.29 MIU/kg BW L19 on days 7-11, 14-18).
FIG. 8 Identification of the immune effector cells mediating L19IL2 induced tumor regression. […]

orthotopic DanG tumors [7] = test: Histology and immunohistochemistry of DanG tumors (necrosis, TUNEL, Ki67, CD11b, NK1.1); format: in vivo, nude mice
Experimental: as §1

[8] = 4.29 MIU/kg BW for 10 days (days 60-64, 67-71)

With “scFv L19: human homodimeric single chain Fv antibody fragment L19 specific for the ED-B domain of fibronectin” the “tumor load compared to control mice” value ([1]; DanG) was “failed to achieve any growth inhibitory effect”.

In the case of “L19IL2: recombinant fusion protein: IL-2 conjugated to the homodimeric scFv L19, specific for the ED-B of fibronectin”, the “tumor load, % of control” value ([2]; 1.43 MIU/kg BW IL-2 equivalents, days 40-44, 47-51, killed day 54) is reported as 10.4%, the “superiority to untargeted IL-2 (tumor load)” value ([2]; 1.43 MIU/kg BW, equimolar amounts) is reported as 8 fold and the “effectiveness relative to untargeted IL-2 (tumor growth)” value ([2]; 4.29 MIU/kg BW, equimolar amounts) is reported as 3 fold. The “tumor volume, % of control” value ([2]; high dosage 4.29 MIU/kg BW IL-2 equivalents, days 40-44, 47-51, killed day 54) was 16.8%, the “serum CA 19-9 levels in tumor bearing mice” value (serum CA 19-9; after treatment (data not shown)) was “significant decrease” and the “serum CA 19-9 levels compared to controls” value (serum CA 19-9; day three after start of treatment) was “two fold lower”. For the same substance, the “serum tumor markers versus baseline at start of therapy” value (serum CA 19-9; end of the experiment) was “did not differ significantly from baseline”, the “serum lipase concentrations compared to controls” value (serum lipase) was “neither L19IL2 nor untargeted IL-2 interfered” and the “signs of acute pancreatitis (HE, NK 1.1 and CD11b staining)” value [3] was “no signs of acute pancreatitis were detectable”. The “median lymph node area, % of vehicle-treated controls” value [4, 8] was “less than 20%”, the primary tumor volume [4, 8] was “significant reduction of primary tumor volume” and the “mice with human-specific DNA PCR positive lymph nodes” value ([4]; 850-bp fragment of human chromosome 17, 4.29 MIU/kg BW for 10 days) was 33%. The “mice with large cytokeratin-immunoreactive cells in lymph nodes” value ([4]; pancytokeratin immunostaining, 4.29 MIU/kg BW for 10 days) was 20%, the “mice with tumor relapse (elevated serum CA 19-9) and death due to tumor burden” value ([5]; DanG, 4.29 MIU/kg BW days 7-11, 14-18, fourth to eighth week after termination of therapy) was “six out of 10” and the “mice surviving without boost of serum CA 19-9, no tumor recurrence at autopsy (cured)” value ([5]; DanG, 4.29 MIU/kg BW days 7-11, 14-18, three months after cessation of therapy) was “Four out of 10”. For the same substance, the “complete remission and lack of tumor relapse, share of mice” value ([5]; long-term surviving mice bearing pancreatic cancer) was 40%, the “effectiveness in NK competent versus NK deficient mice” value (orthotopic DanG tumors [6]) was “more than 5 fold” and the “necrosis, share of tumor area” value (orthotopic DanG tumors [7]; 4.29 MIU/kg BW L19IL2 i.v., H&E) was 42±10.86%. For the same substance, the “apoptotic cell index (TUNEL) versus vehicle treated controls” value (orthotopic DanG tumors [7]; residual vital tumor tissue, 4.29 MIU/kg BW L19IL2) was “no relevant difference”, the “tumor volume, % of that observed in control mice” value ([1]; DanG, 1.43 MIU/kg BW IL-2 equivalents i.v. for 10 days (days 7-11, 14-18)) was 21.4% and the “tumor volume, % of that observed in control mice” value ([1]; DanG, 4.29 MIU/kg BW IL-2 equivalents i.v. for 10 days (days 7-11, 14-18)) was 2.7%. For the same substance, the “tumor load, % of that observed in controls” value ([1]; DanG, 4.29 MIU/kg BW five times by the week, days 7-11 and 14-18, killed day 21) was 12%, the “tumor growth compared to controls, all regimens” value ([1]; DanG, 4.29 MIU/kg BW once weekly, thrice weekly or five times by the week) was “significant tumor growth delay” and the “reduction of tumor volume relative to gemcitabine therapy” value ([1]; DanG, L19IL2 i.v. 4.29 MIU/kg BW days 8-12, 15-19 vs gemcitabine 250 mg/kg BW days 7, 14) was 2.3 fold. For the same substance, the “mice with complete remission” value ([1]; DanG, gemcitabine 250 mg/kg BW days 7, 14, L19IL2 4.29 MIU/kg BW days 8-12, 15-19, or both) was 37%, the “tumor load compared to control mice” value ([1]; DanG) was “statistically significant decrease of tumor load” and the “tumor load, % of that observed in controls” value ([1]; two applications of L19IL2) was 25%.
